{
  "source": "paper PMC8339067",
  "about": "(NPJ Breast Cancer, 2021)",
  "origin": "cited, not measured here",
  "test_system": "HER2+ advanced breast cancer",
  "parameters": "method as in PMID 33002436",
  "conditions": "control group, previously treated with a taxane and trastuzumab; cited from earlier work",
  "data": [
    {"substance": "T-DM1 plus placebo: Control group of KATE2: antibody-drug conjugate T-DM1 given with placebo", "values": [
      {"measurement": "Median PFS", "value": 6.8, "unit": "months"}
    ]}
  ]
}
